According to patent EP4665839B1, “CELL CULTURE MEDIA” (dated 2026):

System: recombinant mAb
Assay: Norvaline incorporation: middle-up mass analysis and peptide mapping
Conditions: mAb produced with CCM supplemented with N-L-NVa-Tyr HCl
From the text: Apostol et al. reported that Norvaline can be incorporated instead of leucine in the α and β subunits of recombinant human hemoglobin expressed in Escherichia coli (Apostol, I., Levine, J., Lippincott, J., Leach, J., Hess, E., Glascock, C. B., Weickert, M. J., & Blackmore, R. (1997). Incorporation of norvaline at leucine positions in recombinant human hemoglobin expressed in Escherichia coli. Journal of Biological Chemistry, 272(46), 28980-28988. https://doi.org/10.1074/jbc.272.46.28980). […] Putative incorporation of NVa instead of Leu can be studied via intact mass analysis and peptide mapping.
Molecular masses of mAb light and heavy chains obtained after reduction were measured using an UHPLC (Vanquish Horizon UHPLC, Thermo Fisher Scientific) coupled with an ESI-Q-ToF mass spectrometer (Impact II, Bruker Daltonics). Briefly, 500 ng of samples were loaded on an Reversed-Phase column (1000Å, 5µm, 2.1x50mm, Agilent) thermostated at 80°C with a flow rate of 0.6 mL/min and eluted with the gradient presented in Table 2. LC-MS gradient used for intact mass analysis. MS analysis was performed using the Impact II mass spectrometer equipped with an ESI source (Bruker Daltonics). MS acquisition was performed in positive mode with end plate offset and capillary voltages set at 500 and 4500 V, respectively. Nebulizer and dry gas were set at 3.0 bar and 12.0 L/min, respectively. […]

incorporation of L-norvaline instead of Leucine: No incorporation
Structure (SMILES): CCC[C@H](N)C(=O)O
